Values quoted from earlier work as cited in paper PMC10961402, “Safety, tolerability, pharmacokinetics and pharmacokinetic-pharmacodynamic modeling of cetagliptin in patients with type 2 diabetes mellitus” (Frontiers in Endocrinology, 2024).

Test system: DPP-4 activity
Settings: healthy male subjects; cited from earlier work

Q: Which “inhibition of DPP-4 activity” value does the source give for `N[C@@H](CC(=O)N1CCn2c(nnc2C(F)(F)F)C1)Cc1cc(F)c(F)cc1F` [Sitagliptin, sitagliptin, reference compound] here?
A: Its value is at least 80%.
